scFv variants of Ab-14 (heavy chain) against a SARS-CoV-2 spike peptide

Values reported by Li et al. 2023, doi:10.1038/s41467-023-39022-2 (FLAb copy).

All variants were tested on one target, the spike HR2 peptide PDVDLGDISGINAS (SARS-CoV-2).

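The parent was found by panning a naive human phage display library on the peptide. This is the validation round: designs drawn from the data on random variants, tested in the same kind of assay. Their group label is 14H_GP_Gen (GP: Gaussian process model; Gen: genetic algorithm; a sequence that several methods proposed may carry one label only). The scFvs were displayed on barcoded MATa yeast, the peptide on MATalpha yeast. After mating in shaken culture at 30 °C for 16 h, diploids were selected and their barcode pairs sequenced. Each replicate has its own calibration line, from reference interactions of the BCL2 family. Each pool was mated in six replicate cultures.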

Each scFv is VH, the linker GGGGSGGGGSGGGGS, VL, as in the parent Ab-14, and differs from it in the CDRs of the heavy chain only.
VH: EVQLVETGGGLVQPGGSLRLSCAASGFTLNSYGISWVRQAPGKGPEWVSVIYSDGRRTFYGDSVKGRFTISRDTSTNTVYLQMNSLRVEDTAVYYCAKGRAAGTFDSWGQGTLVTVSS
VL: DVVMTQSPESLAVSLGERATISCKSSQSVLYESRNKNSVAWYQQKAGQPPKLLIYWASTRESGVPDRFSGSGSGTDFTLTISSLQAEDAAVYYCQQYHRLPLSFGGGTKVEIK

The parent's heavy chain CDRs are GFTLNSYGIS, VIYSDGRRTFYGDSVK, GRAAGTFDS; each variant's own CDRs replace them letter for letter.
The read-out is the apparent dissociation constant on a log10 scale (nM): the lower, the stronger.
Averages over replicates are reported, and they cover detected replicates only.
An entry "nd" has no value in the source: the pair was not observed among the diploids in that replicate. This suggests poor binding but is not conclusive.
The authors averaged sequences with at least three values out of six and counted those with two or fewer as poor binders.

{"CDR-H1": "GFDLNSYGIS", "CDR-H2": "VIYSDGKRTFYADSVK", "CDR-H3": "GREAGTFDS", "log10 Kd, replicates": "-0.12 / -0.13 / -0.41 / -0.40 / -0.38 / -0.26", "mean, log10 nM": "-0.28", "control signals": "1 of 18 (1.98)"}
{"CDR-H1": "GFELNEYGIS", "CDR-H2": "VIYSDGRRTFYGDSVK", "CDR-H3": "GHAAGTFDS", "log10 Kd, replicates": "1.02 / 1.02 / 0.57 / nd / 1.26 / 1.10", "mean, log10 nM": "0.99", "control signals": "0 of 18"}
{"CDR-H1": "GFGLNEYGIS", "CDR-H2": "VIYSDGRRTFYHDSVK", "CDR-H3": "GRNAGTFDS", "log10 Kd, replicates": "0.59 / 0.36 / 0.23 / 0.11 / 0.53 / 0.40", "mean, log10 nM": "0.37", "control signals": "0 of 18"}
{"CDR-H1": "GFTLDSYGIS", "CDR-H2": "VIYADGRRTFYGDSVK", "CDR-H3": "GRAAGTFDT", "log10 Kd, replicates": "0.17 / 0.15 / 0.32 / -0.27 / 0.31 / 0.38", "mean, log10 nM": "0.18", "control signals": "0 of 18"}
{"CDR-H1": "KFSLNSYGIS", "CDR-H2": "VIYADGRRTFYGDSVK", "CDR-H3": "GKAAGTFDS", "log10 Kd, replicates": "0.37 / 0.12 / 0.06 / -0.08 / 0.23 / 0.54", "mean, log10 nM": "0.21", "control signals": "0 of 18"}
{"CDR-H1": "GFTLNSYGIS", "CDR-H2": "VIYSDGRRTFYADSVK", "CDR-H3": "GKQAGTFDS", "log10 Kd, replicates": "-0.18 / 0.47 / 0.19 / 0.08 / 0.24 / 0.55", "mean, log10 nM": "0.23", "control signals": "0 of 18"}
{"CDR-H1": "GFSLNEYGIS", "CDR-H2": "VIYSDGRRTFYGDDVK", "CDR-H3": "GRNAGTFDS", "log10 Kd, replicates": "1.00 / 1.75 / 0.32 / 2.21 / nd / 2.48", "mean, log10 nM": "1.55", "control signals": "0 of 18"}
{"CDR-H1": "GFDLNSYGIS", "CDR-H2": "VIYSDGMRTFYSDSVK", "CDR-H3": "GRTAGTFDS", "log10 Kd, replicates": "-0.01 / -0.10 / -0.42 / -0.27 / -0.28 / 0.07", "mean, log10 nM": "-0.17", "control signals": "0 of 18"}
{"CDR-H1": "GFELNSYGIS", "CDR-H2": "VIYSDGRRTFYQDSVK", "CDR-H3": "GKVAGTFDS", "log10 Kd, replicates": "0.14 / 0.18 / -0.03 / -0.06 / 0.36 / 0.18", "mean, log10 nM": "0.13", "control signals": "0 of 18"}
{"CDR-H1": "GFTLNEYGIS", "CDR-H2": "VIYSDGMRTFYGDSVK", "CDR-H3": "GRHAGTFDS", "log10 Kd, replicates": "0.10 / 0.20 / 0.49 / 1.01 / 0.84 / 1.14", "mean, log10 nM": "0.63", "control signals": "0 of 18"}
{"CDR-H1": "WFSLNEYGIS", "CDR-H2": "VIYSDGRRTFYGDSVK", "CDR-H3": "GRTAGTFDS", "log10 Kd, replicates": "nd / 1.30 / nd / nd / nd / nd", "mean, log10 nM": "1.30", "control signals": "0 of 18"}
{"CDR-H1": "GFSLNEYGIS", "CDR-H2": "VIYSDGRRTFYIDSVK", "CDR-H3": "GRAAGTFDK", "log10 Kd, replicates": "0.44 / 0.54 / 0.24 / 0.49 / 0.48 / 0.91", "mean, log10 nM": "0.52", "control signals": "1 of 18 (1.89)"}
{"CDR-H1": "GFDLNSYGIS", "CDR-H2": "VIYSDGRRTFYGDQVK", "CDR-H3": "GQAAGTFDS", "log10 Kd, replicates": "0.58 / 0.26 / 0.55 / 0.29 / 0.26 / 0.50", "mean, log10 nM": "0.41", "control signals": "0 of 18"}
{"CDR-H1": "SFELNSYGIS", "CDR-H2": "VIYSDGRRTFYADSVK", "CDR-H3": "GRTAGTFDS", "log10 Kd, replicates": "0.80 / 0.79 / 0.68 / 0.73 / 1.31 / 1.38", "mean, log10 nM": "0.95", "control signals": "0 of 18"}
{"CDR-H1": "GFTLESYGIS", "CDR-H2": "VIYADGRRTFYGDSVK", "CDR-H3": "GRAAGTFDA", "log10 Kd, replicates": "0.86 / 1.38 / 1.20 / 0.48 / 0.90 / 1.80", "mean, log10 nM": "1.10", "control signals": "0 of 18"}
{"CDR-H1": "GFSLNSYGIS", "CDR-H2": "VIYSDGRRTFYSDSVK", "CDR-H3": "GMQAGTFDS", "log10 Kd, replicates": "nd / nd / 0.22 / 0.08 / 1.70 / 0.55", "mean, log10 nM": "0.64", "control signals": "0 of 18"}
{"CDR-H1": "GFDLNSYGIS", "CDR-H2": "VIYSDGRRTFYIDSVK", "CDR-H3": "GVAAGTFDS", "log10 Kd, replicates": "0.07 / -0.20 / 0.12 / -0.12 / -0.03 / -0.09", "mean, log10 nM": "-0.04", "control signals": "0 of 18"}
{"CDR-H1": "GFTLNSYGIS", "CDR-H2": "VIYSDGRRTFYGDNVK", "CDR-H3": "GREAGTFDT", "log10 Kd, replicates": "0.03 / 0.30 / 0.58 / 0.31 / 0.09 / 0.59", "mean, log10 nM": "0.31", "control signals": "0 of 18"}
{"CDR-H1": "GFELNSYGIS", "CDR-H2": "VIYSDGRRTFYGDSVK", "CDR-H3": "GRTAGTFDE", "log10 Kd, replicates": "nd / 0.79 / 0.43 / 1.61 / 0.85 / 0.58", "mean, log10 nM": "0.85", "control signals": "0 of 18"}

The 2 strongest on average among those seen in every replicate, once more:

{"CDR-H1": "GFDLNSYGIS", "CDR-H2": "VIYSDGKRTFYADSVK", "CDR-H3": "GREAGTFDS", "log10 Kd, replicates": "-0.12 / -0.13 / -0.41 / -0.40 / -0.38 / -0.26", "mean, log10 nM": "-0.28", "control signals": "1 of 18 (1.98)"}
{"CDR-H1": "GFDLNSYGIS", "CDR-H2": "VIYSDGMRTFYSDSVK", "CDR-H3": "GRTAGTFDS", "log10 Kd, replicates": "-0.01 / -0.10 / -0.42 / -0.27 / -0.28 / 0.07", "mean, log10 nM": "-0.17", "control signals": "0 of 18"}

A sequence measured in both rounds can read differently, since the two assays cover different ranges.
Nonspecific signal, from three strains lacking the peptide, appeared in 1% of pairings of all heavy chain designs, centred on 2.08 (5% of these signals below 0.84); values are not corrected for it. For each scFv, signals with the empty controls are counted beside the result, with their mean in brackets.